UUG fidelity = modulators of start codon recognition fidelity in yeast | S. cerevisiae UUG-firefly luciferase reporter, luminescence/redox ratio | activity score, % at 18.7 µM | 350,000 tested, 0.13% active;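 active = replicate mean at a twofold rise or more, about +100% in these data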;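 also: firefly luciferase made from a UUG start codon reports start codon fidelity; reporter light over untreated wells divided by growth signal over untreated wells; some hits fall short of that in this replicate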
MC4R antag cAMP = human MC4R antagonism in cAMP assay; MC4R-expressing cells, MTII-stimulated cAMP, LANCE TR-FRET; inhibition, % at 6.5 µM; actives 0.48% (n = 360,000);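 active = inhibition above its plate's cutoff, the mean of tested wells on that plate plus 3 SD, cut at about 29% in these data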;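 also: 0% = Melanotan II alone and 100% = Melanotan II plus saturating MCL0020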
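System – human MC4R-expressing U2OS cells · Also added – Melanotan II · Dosing – one concentration, 6.5 µM nominal · Timing – 30-min compound, 1-h challenge, 1-h detection, room temperature · Measured by – Eu-cAMP/anti-cAMP TR-FRET, emission 671 nm · Replicates – singlicate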
ASAP1 GAP inh = inhibitors of human ASAP1 ArfGAP activity; ASAP1-stimulated ARF1 GTP hydrolysis, GDP FP detection; inhibition, % at 16.5 µM; actives 0.19% (n = 360,000); AID 624377; in the data active = inhibition above about 25%;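 also: 0% = vehicle with enzyme and substrate and 100% = no enzyme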
NRP1-CendR mod = NRP-1/CendR interaction modulation | O14786 | FAM-RPARPAR peptide binding to NRP-1, fluorescence polarization | inhibition, % at 25 µM | actives 0.85% (n = 360,000) | AID 602438;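 active = inhibition or corrected inhibition above about 18%, plus a signal ratio from 0.5 to 1.5, limit read from the data, passing the limit was not always enough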
ARFGAP1 inhibitor = inhibits rat ARF GTPase activating protein 1 | actives 0.26% (n = 360,000) | inhibition, % at 16.5 µM | Arfgap1-stimulated ARF1 GTP hydrolysis, GDP FP detection | Q62848;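 active = inhibition above a per-plate limit, mean inhibition of low control wells plus 3 SD, cut at about 25% in these data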;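 also: 0% = DMSO wells with enzyme and 100% = wells lacking Arfgap1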
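system = rat Arfgap1 catalytic domain, aa 1-136 | technique = FP, GDP Alexa 633 tracer displaced from anti-GDP antibody, 620/688 nm | compound = one concentration, 16.5 µM, DMSO 1.26% | medium = HEPES-based buffer, pH 7.5 | timing = compound-enzyme preincubation 20 min, reaction 120 min, detection 60 min, 25 °C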
MC4R barr agon = agonists of human melanocortin 4 receptor (MC4R) beta-arrestin; P32245; U2OS MC4R beta-arrestin complementation, luminescence; percent of melanotan II response, DMSO zero; activation, % at 8.9 µM; actives 0.98% (n = 360,000);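 active = activation above a per-plate cutoff, the mean activation of sample wells on that plate plus 3 SD, cut at about 8% in these data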
* hit, by the source's call; / = no result given. This is a sample that favours compounds with a hit; in the whole collection about 2.3% have one here.

nr	UUG fidelity	MC4R antag cAMP	ASAP1 GAP inh	NRP1-CendR mod	ARFGAP1 inhibitor	MC4R barr agon	SMILES
1	0	/	/	/	/	/	C[C@@H]1CCCCO[C@H](CN(C)C(=O)Nc2ccccc2)[C@H](C)CN([C@@H](C)CO)C(=O)c2cc(NS(=O)(=O)c3ccc(Cl)cc3)ccc2O1
2	8	/	/	/	/	/	C[C@@H]1CN([C@@H](C)CO)C(=O)c2cc(NC(=O)C3CCCCC3)ccc2O[C@@H](C)CCCCO[C@@H]1CN(C)C(=O)NC1CCCCC1
3	/	3	-9	2	8	-1	C/C(=N\NC(=O)CNc1cccc(C(F)(F)F)c1)c1cccc(Br)c1
4	/	8	5	0	1	8.3*	C/C(=N\NC(=O)CNc1cccc(C(F)(F)F)c1)c1ccc(Br)cc1
5	0	/	/	/	/	/	O=C(NC1CCC1)[C@H]1[C@H](CO)[C@H]2Cn3c(ccc(-c4ccccc4)c3=O)[C@@H]1N2CC1CC1
6	/	5	12	3	1	0	Cn1c(=O)oc2cc(S(=O)(=O)Nc3ccccc3)ccc21
7	2	9	6	22*	-6	-3	CC(C)NS(=O)(=O)c1ccc2c(c1)oc(=O)n2C
8	-13	1	-3	17	13	-1	COc1cc(C)c(Cl)cc1S(=O)(=O)NCc1ccco1
9	310*	0	-2	4	-3	1	CCOc1cc(C)c(Cl)cc1S(=O)(=O)NCc1ccco1
10	-17	1	-10	-4	-4	-2	Cc1oc2c(c(=O)c1C)C(=O)CC(c1ccccc1)C2 (centres undefined)

Given with two lines to a compound: part of the list above.
Results follow in this order: UUG fidelity, MC4R antag cAMP, ASAP1 GAP inh, NRP1-CendR mod, ARFGAP1 inhibitor, MC4R barr agon
2	C[C@@H]1CN([C@@H](C)CO)C(=O)c2cc(NC(=O)C3CCCCC3)ccc2O[C@@H](C)CCCCO[C@@H]1CN(C)C(=O)NC1CCCCC1
→ 8, /, /, /, /, /
3	C/C(=N\NC(=O)CNc1cccc(C(F)(F)F)c1)c1cccc(Br)c1
→ /, 3, -9, 2, 8, -1
4	C/C(=N\NC(=O)CNc1cccc(C(F)(F)F)c1)c1ccc(Br)cc1
→ /, 8, 5, 0, 1, 8.3*
5	O=C(NC1CCC1)[C@H]1[C@H](CO)[C@H]2Cn3c(ccc(-c4ccccc4)c3=O)[C@@H]1N2CC1CC1
→ 0, /, /, /, /, /

Carrying on.
nr	UUG fidelity	MC4R antag cAMP	ASAP1 GAP inh	NRP1-CendR mod	ARFGAP1 inhibitor	MC4R barr agon	SMILES
11	-19	33*	1	1	6	-2	CS(=O)(=O)c1sc(C#N)c2c1C(=O)CC(c1ccccc1)C2 (centres undefined)
12	-7	/	/	/	/	/	CCCNC(=O)N1C[C@@H](C)[C@H](OC)CN(C)C(=O)c2cc(NS(=O)(=O)CC(F)(F)F)ccc2OC[C@@H]1C
13	-6	-4	6	13	8	-1	COc1cccc(NC(=O)CCNS(=O)(=O)c2cccc3nonc23)c1
14	-9	5	-4	28*	0	-2	COc1ccc(OC)c(NC(=O)CCNS(=O)(=O)c2cccc3nonc23)c1
15	-11	18	2	28*	0	-2	C=C1c2ccccc2S(=O)(=O)N(Cc2ccccc2)C1COCc1ccccc1 (centres undefined)
16	/	10	-6	6	0	-1	COc1ccc2c(c1)SCCC2=O
17	-12	-2	-8	31*	0	0	COc1cc2c(cc1OC)C(=O)CCS2
18	5	14	-1	11	-2	8.9*	Cc1ccc(Nc2nc3c(c(=O)[nH]c(=O)n3C)n2Cc2ccc(F)cc2)cc1
19	/	-5	1	-21	-6	-2	Cn1c(=O)[nH]c(=O)c2c1nc(NCCCO)n2Cc1ccc(F)cc1
20	-2	/	/	/	/	/	Cc1ccc(S(=O)(=O)NCC[C@@H]2CC[C@H](NC(=O)c3cccc(F)c3)[C@H](CO)O2)cc1

Some values from the list.
no. 16 – ARFGAP1 inhibitor = 0
no. 15 – ARFGAP1 inhibitor = 0
no. 11 – NRP1-CendR mod = 1

(listing goes on)
nr	UUG fidelity	MC4R antag cAMP	ASAP1 GAP inh	NRP1-CendR mod	ARFGAP1 inhibitor	MC4R barr agon	SMILES
21	-13	30*	/	0	/	-2	CS(=O)(=O)c1nc(-c2ccccc2)cc(-c2ccccc2)c1C#N
22	16	/	/	/	/	/	CN1C(=O)C2C(C1=O)C1C=C(CCCO)C2C(c2ccc(CN3CCCC3)cc2)N1Cc1sc2ccccc2c1Cl (centres undefined)
23	-11	21	12	5	-2	9.0*	O=C(Nc1ccc(Cl)cc1)N1CCC(c2nc(-c3ccccc3Cl)no2)CC1
24	-12	6	8	3	10	-1	O=C(Nc1ccc(Cl)cc1)N1CCC(c2nc(-c3cccs3)no2)CC1
25	-6	-9	-11	31*	-6	3	O=C(COC(=O)C12CC3CC(CC(C3)C1)C2)Nc1nc2c(F)c(F)c(F)cc2s1
26	-19	-1	-3	25*	4	-1	O=C(NC1CC1)c1ccc(COc2ccc(F)cc2)o1
27	/	7	-10	34*	-1	-3	O=c1cc[nH]c2ccc([N+](=O)[O-])cc12
28	-8	/	/	/	/	/	C[C@H]1CN([C@@H](C)CO)C(=O)c2cc(NS(=O)(=O)c3cccs3)ccc2O[C@@H]1CN(C)Cc1ccncc1
29	-14	-4	8	-12	-1	9.4*	CC(C)CCn1cnc2c([nH]c3cccc(Cl)c32)c1=O
30	/	2	-14	26*	-7	-1	CC(C)n1c(NCCO)nc2ccccc21

Screening results (PubChem BioAssay)
